Values of other authors in patent publication US20170007610A1, “NOVEL HETEROBICYCLIC COMPOUNDS AS KAPPA OPIOID AGONISTS” (priority 2014, published 2017).

Chains of the proteins cited; added tags and fusions are not shown. Lines headed by an entry give the natural chain unless they say otherwise; changes in a name come on top.
UniProt P41145: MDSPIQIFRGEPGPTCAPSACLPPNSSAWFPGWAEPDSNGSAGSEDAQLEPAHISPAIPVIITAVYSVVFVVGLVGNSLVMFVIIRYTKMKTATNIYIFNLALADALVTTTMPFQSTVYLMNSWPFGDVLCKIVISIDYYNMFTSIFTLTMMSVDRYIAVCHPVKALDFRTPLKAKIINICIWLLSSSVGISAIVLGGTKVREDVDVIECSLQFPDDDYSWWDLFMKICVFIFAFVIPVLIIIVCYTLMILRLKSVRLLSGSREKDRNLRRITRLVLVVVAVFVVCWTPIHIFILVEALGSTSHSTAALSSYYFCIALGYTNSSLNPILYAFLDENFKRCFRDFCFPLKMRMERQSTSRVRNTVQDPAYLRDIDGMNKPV

Molecular target: κ-opioid receptor (Homo sapiens, UniProt P41145)
Conditions: relative to U-50,488; cited from earlier work

Structure (SMILES): CN(C(=O)Cc1ccc(Cl)c(Cl)c1)[C@H](CN1CCCC1)c1ccccc1
- fold more potent than U-50,488 invitro: 146 fold
